Literature values as cited in paper PMC9143003, “Neutrophil Immunomodulatory Activity of Farnesene, a Component of Artemisia dracunculus Essential Oils” (Pharmaceuticals, 2022).

System: human neutrophils
Set-up: method as in PMID 27586050, PMID 25959257
Conditions: previous analysis; cited from earlier work

## (E/Z)-β-ocimene
  Effect on human neutrophil [Ca^2+]i (in words): no effect
